Article PMC9151520 (Archives of Toxicology, 2022)

What was measured:
[1] = tested on: p53 signaling (p53RE-bla HCT-116 cells); test: p53-bla reporter gene assay with rat liver microsomes (RLM) plus NADPH
[2] = tested on: p53 signaling (p53RE-bla HCT-116 cells); test: p53-bla reporter gene assay with heat-attenuated RLM plus NADPH; assay type: cell-based; conditions: for efficacy: Heat-attenuated microsomes (RLM), value in parentheses
[3] = tested on: p53 signaling (p53RE-bla HCT-116 cells); test: p53-bla reporter gene assay with human liver microsomes (HLM) plus NADPH
[4] = tested on: p53 signaling (p53RE-bla HCT-116 cells); test: p53-bla reporter gene assay with RLM without NADPH; assay type: cell-based; conditions: No NADPH addition; for efficacy: value in parentheses; for EC50: mean ± SD of three experiments
[5] = parent compound, RLM with p53-bla cells, % of amount at 0 h
[6] = tested on: p53 signaling (p53RE-bla HCT-116 cells); test: p53-bla reporter gene assay without microsomes (qHTS); assay type: cell-based
p53RE-bla HCT-116 cells = test: Cell viability (CellTiter Glo) multiplexed with the p53-bla assay; conditions: for Viability EC50, HLM / Viability Efficacy, HLM: human liver microsomes; for Viability EC50, RLM / Viability Efficacy, RLM: rat liver microsomes
[7] = cherry pick confirmation, with rat liver microsomes
[8] = primary screening, with rat liver microsomes
[9] = cherry pick confirmation, with human liver microsomes
[10] = primary screening, with human liver microsomes
[11] = cherry pick confirmation, without microsomes
[12] = primary screening, without microsomes
[13] = Cherry pick confirmation, human liver microsomes

Compound: EPN
- p53 activation efficacy [1, 7]: 40.6193
- p53 activation efficacy [1, 8]: 50.976
- efficacy [2]: 30.74 ± 7.4%
- p53 activation EC50 [3, 9]: inactive
- p53 activation efficacy [3, 9]: inactive
- p53 activation efficacy [3, 10]: 33.0667
- efficacy [4]: 62.97 ± 5.75%
- Depletion after 16 h of incubation with cells [5]: 88.15 ± 1.39%
- p53 activation EC50 ([6]; cherry pick confirmation): inactive
- p53 activation efficacy ([6]; cherry pick confirmation): inactive
- p53 activation EC50 ([6]; primary screening): inactive
- p53 activation efficacy ([6]; primary screening): inactive
- Viability EC50 (p53RE-bla HCT-116 cells; [9]): inactive
- Viability efficacy (p53RE-bla HCT-116 cells; [9]): inactive
- Viability EC50 (p53RE-bla HCT-116 cells; [7]): inactive
- Viability efficacy (p53RE-bla HCT-116 cells; [7]): inactive
- Viability EC50 (p53RE-bla HCT-116 cells; [11]): inactive
- Viability efficacy (p53RE-bla HCT-116 cells; [11]): inactive
- Viability EC50 (p53RE-bla HCT-116 cells; [10]): inactive
- Viability efficacy (p53RE-bla HCT-116 cells; [10]): inactive
- Viability EC50 (p53RE-bla HCT-116 cells; [8]): inactive
- Viability efficacy (p53RE-bla HCT-116 cells; [8]): inactive
- Viability EC50 (p53RE-bla HCT-116 cells; [12]): inactive
- Viability efficacy (p53RE-bla HCT-116 cells; [12]): inactive

Compound: CCOP(=S)(CC)Sc1ccccc1 (stereo not shown)
- activity outcome in p53-bla assay ([1]; with RLM, confirmation study): induce p53 signaling
- EC50 ([2]; Heat-attenuated microsomes (RLM, 56 °C 30 min), mean ± SD of three experiments): Inactive
- p53 activation EC50, HLM [3, 13]: inactive
- p53 activation Efficacy, HLM [3, 13]: inactive
- EC50 ([3]; read-out: p53 activation EC50, HLM, Primary screening, human liver microsomes): 4.43 µM
- EC50 [4]: 18.9 µM
- efficacy [4]: 95.35 ± 18.84%
- Depletion after 16 h of incubation with cells [5]: 97.33 ± 0.29%
- p53 activation EC50, No MS ([6]; cherry pick confirmation): inactive
- p53 activation Efficacy, No MS ([6]; cherry pick confirmation): inactive
- p53 activation EC50, No MS ([6]; primary screening): inactive
- p53 activation Efficacy, No MS ([6]; primary screening): inactive
- Viability EC50, HLM (p53RE-bla HCT-116 cells; Cherry pick confirmation): inactive
- Viability Efficacy, HLM (p53RE-bla HCT-116 cells; Cherry pick confirmation): inactive
- Viability EC50, RLM (p53RE-bla HCT-116 cells; Cherry pick confirmation): inactive
- Viability Efficacy, RLM (p53RE-bla HCT-116 cells; Cherry pick confirmation): inactive
- Viability EC50, HLM (p53RE-bla HCT-116 cells; Primary screening): inactive
- Viability Efficacy, HLM (p53RE-bla HCT-116 cells; Primary screening): inactive
- Viability EC50, RLM (p53RE-bla HCT-116 cells; Primary screening): inactive
- Viability Efficacy, RLM (p53RE-bla HCT-116 cells; Primary screening): inactive
- Viability EC50, No MS (p53RE-bla HCT-116 cells; [11]): inactive
- Viability Efficacy, No MS (p53RE-bla HCT-116 cells; [11]): inactive
- Viability EC50, No MS (p53RE-bla HCT-116 cells; [12]): inactive
- Viability Efficacy, No MS (p53RE-bla HCT-116 cells; [12]): inactive

Compound: CC(C)OP(=S)(OC(C)C)SCCNS(=O)(=O)c1ccccc1
- EC50 ([1]; Microsomes (RLM plus NADPH), follow-up study, mean ± SD of three experiments): 8.35 µM
- p53 activation efficacy [1, 7]: 47.4617
- p53 activation efficacy [1, 8]: 42.8953
- EC50 ([1]; read-out: p53 activation EC50, cherry pick confirmation, with rat liver microsomes): 7.08 µM
- EC50 ([1]; read-out: p53 activation EC50, primary screening, with rat liver microsomes): 4.95 µM
- efficacy [2]: 54.92 ± 34.55%
- p53 activation EC50 [3, 9]: inactive
- p53 activation efficacy [3, 9]: inactive
- p53 activation efficacy [3, 10]: 38.1643
- EC50 ([3]; read-out: p53 activation EC50, primary screening, with human liver microsomes): 5.12 µM
- EC50 [4]: 9.68 µM
- efficacy [4]: 58.17 ± 3.93%
- p53 activation EC50 ([6]; cherry pick confirmation): inactive
- p53 activation efficacy ([6]; cherry pick confirmation): inactive
- p53 activation EC50 ([6]; primary screening): inactive
- p53 activation efficacy ([6]; primary screening): inactive
- Viability EC50 (p53RE-bla HCT-116 cells; [9]): inactive
- Viability efficacy (p53RE-bla HCT-116 cells; [9]): inactive
- Viability EC50 (p53RE-bla HCT-116 cells; [7]): inactive
- Viability efficacy (p53RE-bla HCT-116 cells; [7]): inactive
- Viability EC50 (p53RE-bla HCT-116 cells; [11]): inactive
- Viability efficacy (p53RE-bla HCT-116 cells; [11]): inactive
- Viability EC50 (p53RE-bla HCT-116 cells; [10]): inactive
- Viability efficacy (p53RE-bla HCT-116 cells; [10]): inactive
- Viability EC50 (p53RE-bla HCT-116 cells; [8]): inactive
- Viability efficacy (p53RE-bla HCT-116 cells; [8]): inactive
- Viability EC50 (p53RE-bla HCT-116 cells; [12]): inactive
- Viability efficacy (p53RE-bla HCT-116 cells; [12]): inactive
